The source of these data is patent US11365204B2, “Substituted dihydrothienopyrimidines and their use as phosphodiesterase inhibitors” (UNION therapeutics A/S, priority 2017, dated 2022).

By UniProt entry, the sequences of proteins in these tests, tags left out. Residues count along the entry.
UniProt Q08499, 380-740 limits assumed: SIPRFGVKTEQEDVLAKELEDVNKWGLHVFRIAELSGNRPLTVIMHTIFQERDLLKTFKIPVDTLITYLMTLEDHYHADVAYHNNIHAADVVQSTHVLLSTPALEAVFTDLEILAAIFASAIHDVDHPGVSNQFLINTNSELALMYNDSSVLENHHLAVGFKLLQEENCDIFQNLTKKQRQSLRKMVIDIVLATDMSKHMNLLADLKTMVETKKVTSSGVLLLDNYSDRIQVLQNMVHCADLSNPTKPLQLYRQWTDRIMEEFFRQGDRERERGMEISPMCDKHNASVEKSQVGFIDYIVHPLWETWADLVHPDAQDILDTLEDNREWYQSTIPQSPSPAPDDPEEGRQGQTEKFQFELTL

The structures appear in SMILES notation. Where only a bound is given, the exact number is not on record here.

Experiment [1] has as its target human PDE4D catalytic domain (UniProt no. Q08499 [S380-L740]) (Homo sapiens (Human), UniProt Q08499). In words: PDE4 assay (TR-FRET, cAMP hydrolysis). Conditions: read-out: PDE4 IC50 range. The procedure:
The human PDE4D catalytic domain (UniProt no. Q08499 [S380-L740]) was incubated with a mixture of non-labelled cAMP (cyclic adenosine monophosphate) and fluorescein amidite (FAM) conjugated cAMP and titrated test or reference compound.
Following brief incubation the enzymatic reaction was stopped by addition of binding buffer containing nanoparticles with immobilized trivalent metal ions capable of binding 1) AMP phospho groups and 2) terbium (Tb) donor fluorophores. Subsequent excitation of the Tb donor triggered time-resolved FRET to adjacent FAM acceptor molecules resulting in light emission. In the presence of a PDE4 inhibitor, AMP generation was reduced resulting in a lower fluorescence signal. The cAMP phosphodiester is not bound by the detection system.
Results were expressed as IC50 values (nM) calculated from inhibition curves where the TR-FRET signal was normalized to Tb fluorescence intensity and the negative (DMSO vehicle) and positive (10 microM a PDE4 inhibitor reference compound) controls.
In general terms: TR-FRET usually uses a lanthanide donor and a delayed reading to cut background.

Experiment [2] relates to Human peripheral blood mononuclear cells (PBMC). The experiment can be described thus: TNF-α release from LPS-stimulated PBMC. Conditions: read-out: TNF-α IC50 range, Lipopolysaccharide 1 microg/ml, 18 hours, AlphaLISA. The procedure: Human peripheral blood mononuclear cells (PBMC) were isolated from fresh buffy coats by density centrifugation using lymphoprep tubes (Medinor). Frozen PBMC's were washed in serum free assay buffer (RPMI1640 with 25 mM HEPES, 1% pen/strep, […] L glutamine, 0.5% human serum albumin) and living cells counted. Lipopolysaccharide (1 microg/ml; SIGMA) was added to the cells which were then transferred to 384 well tissue culture plates ([…]) containing titrated test compounds. The cells were incubated for 18 hours at 37° C. in serum free assay buffer and the level of TNFalpha in the supernatant was quantitated by AlphaLISA (PerkinElmer) by measuring fluorescence intensity at 615 nm.
Results were expressed as IC50 values calculated from inhibition curves using as controls the secretion in LPS stimulated wells and the secretion in cells incubated with 10 microM of a PDE4 inhibitor reference compound.
(In Alpha technology, singlet oxygen from a donor bead excites a nearby acceptor bead.)

Consider `CC(=O)N1CC[C@H](Nc2nc(N3CC(OC(=O)c4cnsc4)C3)nc3c2[S+]([O-])CC3)C1` (some centres unmarked), for which the IC50 in experiment [1] and in experiment [2] was less than 100 nM throughout.
